Measurements taken from patent US20140271648A1 (Janssen / Centocor, published 2014).

What was measured:
[1] = biological target: T1, human IFNαB2 (human, UniProt P32881 24-189); assay: cell-based or functional assay
[2] = biological target: T1, human IFNαB2; assay: SPR (ProteOn); mAb captured on anti-human Fc, IFN as analyte

B1: C2595 (antibody, V domains shown)
VH: EVQLQQSGGDLVKPGGSLKLSCAASGFTFSSYGMSWVRQTPDKRLDWVSIITSGGSYTYYPDSVKGRFTISRDNAKNTLYLQMSSLKSEDTAMYYCARHAEGGGNYDYAMDYWGQGTSVTVSS
VL: DIVMTQAAFSNPVTLGTSASISCRSSKSLLHSNGITYLYWYLQKPGQSPQLLIYQMSNLASGVPDRFSSSGSGIDFTLRISRVEAEDVGAYYCAQNLELPFTFGSGTKLEIK
[1]
  IC50, ISRE reporter gene assay: 11.1 nM

B2: M3239 (antibody, human IgG1, V domains shown)
VH: B1 VH
VL: B1 VL
notes: C2595 variable regions transferred to human IgG1 constant region; also called human/mouse chimeric IgG1 derived from c2595
[2]
  Kd: 32.2 nM

B3: IFWM43 (antibody, V domains shown)
VH: QVQLVQSGAEVKKPGSSVKVSCKASGGTFSSYAISWVRQAPGQGLEWMGGIIPIFGTANYAQKFQGRVTITADESTSTAYMELSSLRSEDTAVYYCARDSWGSYYAALDYWGQGTLVTVSS
VL: not shown
notes: Fab from a pIX phage display library, converted to human IgG1 mAb; also called anti IFNα/ω mAb M43
[2]
  Kd: 0.9 nM
[1]
  IC50, ISRE reporter gene assay: 25.9 nM
